scFv variants of Ab-14 (light chain) against a SARS-CoV-2 spike peptide

From the AlphaSeq antibody data of Engelhart et al. 2022 (doi:10.1038/s41597-022-01779-4), copy in the FLAb collection.

Target: peptide PDVDLGDISGINAS, taken from heptad repeat 2 (HR2) of SARS-CoV-2 spike.

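The starting antibody came from a phage panning campaign against this peptide. The library (AAYL50) carries one to three amino acid substitutions per variant, with no insertions or deletions. AlphaSeq pools MATa yeast showing the antibodies with MATalpha yeast showing the peptide. Pairs that bind mate more often; barcode pairs of the diploids are counted by sequencing. Each replicate has its own calibration line, from reference interactions of the BCL2 family. Each pool was mated in three replicate cultures.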

The variants keep the heavy chain, the linker and the frameworks of Ab-14 (scFv order VH, a (GGGGS)3 linker, VL).
VH: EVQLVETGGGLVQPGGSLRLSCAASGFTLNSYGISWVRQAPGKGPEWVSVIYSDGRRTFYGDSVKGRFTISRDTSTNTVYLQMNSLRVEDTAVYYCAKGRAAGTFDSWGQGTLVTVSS
VL: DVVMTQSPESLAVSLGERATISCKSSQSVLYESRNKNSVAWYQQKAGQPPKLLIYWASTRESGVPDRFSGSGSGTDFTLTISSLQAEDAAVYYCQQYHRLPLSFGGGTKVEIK

Changes read parent residue, position, new residue, counted from the first residue of the VL shown. The read-out is the apparent dissociation constant on a log10 scale (nM): the lower, the stronger. The mean shown is taken over the replicates in which the pair was detected. "ND" marks a missing value. The strain was present, yet no cells mated with the target were sequenced in that replicate, which points to weak or no binding.

changes	replicates, log10 nM	log10 Kd (nM), mean	control signals
L30N A40E S103Q	ND ND ND	ND	0 of 9
K24P S26M N37P	5.89 ND ND	5.89	3 of 9 (4.40)
V29F A40I P101S	3.54 3.65 ND	3.60	1 of 9 (2.41)
K24M R34H V39N	ND 3.48 ND	3.48	2 of 9 (3.59)
K24D S28W S38E	2.88 3.19 3.76	3.27	1 of 9 (4.08)
Q27M A57E R99Q	1.57 1.45 1.83	1.62	1 of 9 (4.05)
W56H A57G S62R	0.46 0.68 0.54	0.56	2 of 9 (4.39)
Q27W N37E P101H	ND ND ND	ND	1 of 9 (5.23)
S33H R34T Y97A	ND ND ND	ND	1 of 9 (3.41)
Q27F R60N P101K	5.03 4.65 ND	4.84	5 of 9 (4.89)
V39R E61K Q96T	ND ND ND	ND	3 of 9 (3.63)
S58W Y97W L100R	ND ND ND	ND	1 of 9 (3.80)
K24F A57K T59Q	ND 2.81 ND	2.81	1 of 9 (2.81)
E32A K36T S62K	0.86 1.02 1.02	0.97	0 of 9
S58R Y97G	2.20 2.39 2.23	2.28	3 of 9 (5.02)
S25I R60E S62K	4.58 2.28 2.44	3.10	0 of 9
S33A K36H S58Y	1.79 1.94 2.20	1.98	5 of 9 (4.57)
S38L R99T L102T	ND ND ND	ND	1 of 9 (3.87)
L30Q S33A R99C	1.49 2.10 2.38	1.99	1 of 9 (4.05)
V29E S38E A57W	ND ND 4.14	4.14	3 of 9 (3.93)
K24H S26C L100Y	2.84 3.14 3.96	3.31	4 of 9 (3.57)
E61V Q95Y S103K	ND ND ND	ND	0 of 9
Y31N R60L R99C	1.96 1.83 1.69	1.83	3 of 9 (4.39)
S33V	2.01 2.17 2.39	2.19	3 of 9 (4.07)
E61D S62V P101A	ND ND ND	ND	1 of 9 (2.50)
S25G S58F L102T	ND ND ND	ND	0 of 9
S26A V39P L102W	ND ND ND	ND	0 of 9
E32H E61S R99H	2.11 1.88 1.93	1.97	2 of 9 (4.49)
Q27R V39P L102T	ND 3.42 ND	3.42	2 of 9 (3.45)
R34Y E61F	1.05 1.12 1.04	1.07	2 of 9 (4.08)
Q27Y Y31M R99C	1.14 1.14 1.05	1.11	3 of 9 (4.52)
Y31P K36A Y97L	0.47 0.73 0.44	0.55	1 of 9 (4.56)
A57S R60E	ND ND ND	ND	1 of 9 (3.84)
K36F Q95Y H98K	ND ND ND	ND	0 of 9
N37M W56V S62H	ND ND ND	ND	0 of 9
S25C V39W P101V	3.60 ND 4.03	3.82	4 of 9 (4.17)
E32R S33A	ND ND ND	ND	0 of 9
S26V S28M S58G	ND ND ND	ND	0 of 9
Q27S N37E A57W	ND 5.48 4.24	4.86	7 of 9 (4.36)
L30D V39S W56P	4.50 ND ND	4.50	0 of 9
N35I A57E Q95S	4.13 ND ND	4.13	0 of 9
E32Y R34I Y97M	ND ND ND	ND	0 of 9
S28W S38K E61V	4.12 ND 4.38	4.25	3 of 9 (3.94)
S25R K36R N37W	2.96 ND 4.68	3.82	0 of 9
K36I N37C R60W	ND ND ND	ND	0 of 9
K24G S26I Q27M	ND 3.65 ND	3.65	1 of 9 (2.18)
S28E A57I E61C	ND ND ND	ND	0 of 9

Again, the first 4 entries without any signal:

changes	replicates, log10 nM	log10 Kd (nM), mean	control signals
L30N A40E S103Q	ND ND ND	ND	0 of 9
Q27W N37E P101H	ND ND ND	ND	1 of 9 (5.23)
S33H R34T Y97A	ND ND ND	ND	1 of 9 (3.41)
V39R E61K Q96T	ND ND ND	ND	3 of 9 (3.63)

Parent in this assay: reference entry 0.65, copy in this library 1.68. Background: pairings of library AAYL50 with three empty control strains gave a value in 18% of cases (median 4.19, 5th percentile 2.99). Values in that range, when seen in few replicates, are hard to tell from nonspecific mating. The control count says in how many pairings with the empty strains this scFv gave a signal, with their mean in brackets.